Assay results published in patent US9126941B2.

Chains of the proteins cited; added tags and fusions are not shown. Lines headed by an entry give the natural chain unless they say otherwise; changes in a name come on top.
UniProt P10275: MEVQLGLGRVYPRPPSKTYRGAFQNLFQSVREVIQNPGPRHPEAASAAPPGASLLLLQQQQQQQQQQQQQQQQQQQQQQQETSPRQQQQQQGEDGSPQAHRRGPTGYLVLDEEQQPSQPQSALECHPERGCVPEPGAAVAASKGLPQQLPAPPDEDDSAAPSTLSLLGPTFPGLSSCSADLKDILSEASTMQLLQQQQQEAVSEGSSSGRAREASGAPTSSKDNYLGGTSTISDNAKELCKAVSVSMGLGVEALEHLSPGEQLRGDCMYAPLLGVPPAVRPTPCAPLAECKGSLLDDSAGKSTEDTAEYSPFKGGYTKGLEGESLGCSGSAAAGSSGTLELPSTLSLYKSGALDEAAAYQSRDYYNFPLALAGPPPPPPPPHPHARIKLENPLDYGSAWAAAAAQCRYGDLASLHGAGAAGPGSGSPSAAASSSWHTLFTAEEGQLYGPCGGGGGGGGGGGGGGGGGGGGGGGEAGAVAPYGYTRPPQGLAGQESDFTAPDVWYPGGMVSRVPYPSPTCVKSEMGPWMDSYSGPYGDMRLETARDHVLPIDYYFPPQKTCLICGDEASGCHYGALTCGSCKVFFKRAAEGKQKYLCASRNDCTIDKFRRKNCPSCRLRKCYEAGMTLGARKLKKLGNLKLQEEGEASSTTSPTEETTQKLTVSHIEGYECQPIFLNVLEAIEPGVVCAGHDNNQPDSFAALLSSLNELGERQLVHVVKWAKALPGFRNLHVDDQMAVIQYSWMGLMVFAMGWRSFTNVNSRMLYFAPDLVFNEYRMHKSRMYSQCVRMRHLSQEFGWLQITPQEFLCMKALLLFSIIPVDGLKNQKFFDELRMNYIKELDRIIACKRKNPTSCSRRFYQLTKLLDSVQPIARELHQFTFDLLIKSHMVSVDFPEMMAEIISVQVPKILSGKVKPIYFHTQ

Biological target: AR (Homo sapiens, UniProt P10275)
Assay: cell-based

## CCOC(=O)/C=C/c1ccc(N2C(=S)N(c3ccc(C#N)c(C(F)(F)F)c3)C(=O)C23CCC3)cc1 [RD117, 3-{4-[7-(4-cyano-3-trifluoromethylphenyl)-8-oxo-6-thioxo-5,7-diazaspiro[3.4]oct-5-yl]-phenyl}-acrylic acid ethyl ester]
  IC50: 197 nM
